From article PMC10380083, “Synthesis of Prostate-Specific Membrane Antigen-Targeted Bimodal Conjugates of Cytotoxic Agents and Antiandrogens and Their Comparative Assessment with Monoconjugates” (International Journal of Molecular Sciences, 2023) come the findings set out here.

The subject of data set [1] is LNCaP cells. As to the kind of experiment: In vitro cytotoxicity, MTS assay, LNCaP. As to conditions: 72 h, high PSMA expression, range 0.5 to 800 nM, triplicates. In kind it is cell-based. On the procedure:
(§1) The resulting bimodal conjugates were tested in vitro on three different PCa cell lines. We used LNCaP cells with high PSMA expression, 22Rv1 cells with moderate PSMA expression and PC-3 cells with extremely low PSMA expression. Different levels of PSMA expression in 22Rv1 and LNCaP cell lines allows evaluation of the effect of the level of expression on the toxicity of the target drugs. PSMA-negative cell line PC-3 allows a qualitative assessment of non-specific toxicity of the obtained compounds.
(§2) The cytotoxicity of the investigated substances was tested using the MTS assay with some modifications. Cells were seeded in the 96-well plates (Corning, New York, NY, USA) at concentration of 7000 cells per well for PC-3 culture, 12,000 cells per well for LNCaP cells and 20,000 cells per well for 22Rv1 line. The cells were counted using the automatic cell counter EVE. All cell lines were purchased from the American Type Culture Collection (ATCC, Manassas, VA, USA). After 1 day, serial dilutions of tested substances were added to the cells. Cell culture medium with addition of DMSO in appropriate concentrations was used as a negative control. DMSO (30%) was added in culture medium as a positive control. Cells were then incubated during 72 h at 37 °C and 5% CO2. Later, the culture medium from each well was removed and 20 μL of MTS reagent (CellTiter 96 AQueous Non-Radioactive Cell Proliferation Assay, Promega) were added to each well with 100 μL of new culture medium. After 4 h incubation at 37 °C in darkness, the absorbance of the solution was measured at 490 nm wavelength using Thermo Scientific Multiskan GO spectrometer. Cell viability was calculated as a percentage compared to control cells. The absorbance of MTS reagent in culture medium without cells was taken as zero. […] Experiments were performed in triplicates. Data were analyzed using Prism 9—GraphPad version 9.2.0 software. p values < 0.05 were considered significant.

Data set [2] relates to 22Rv1 cells. As to the kind of experiment: In vitro cytotoxicity, MTS assay, 22Rv1. Type of data set: cell-based, human. The note with it: 72 h, moderate PSMA expression, range 0.5 to 800 nM, triplicates. On the procedure:
as §1, §2

Data set [3] has as its system PC-3 cells. In words: In vitro cytotoxicity, MTS assay, PC-3. In kind it is cell-based, human. The note with it: 72 h, extremely low PSMA expression, range 0.5 to 800 nM, triplicates. On the procedure: as §1, §2

With `CC[C@H](C)[C@@H]([C@@H](CC(=O)N1CCC[C@H]1[C@H](OC)[C@@H](C)C(=O)N[C@H](C)[C@@H](O)c1ccccc1)OC)N(C)C(=O)[C@@H](NC(=O)[C@H](C(C)C)N(C)C(=O)OCc1ccc(NC(=O)[C@H](CCCNC(N)=O)NC(=O)[C@@H](NC(=O)CCCc2cn(CCCNC(=O)[C@H](CCCCNC(=O)CCC(=O)O[C@H]3CC[C@@]4(C)C(=CC[C@@H]5[C@@H]4CC[C@]4(C)C(c6cccnc6)=CC[C@@H]54)C3)NC(=O)[C@H](Cc3ccc(O)cc3)NC(=O)[C@H](Cc3ccccc3)NC(=O)CCC(=O)NCCCCCC(=O)N(CCCC[C@H](NC(=O)N[C@@H](CCC(=O)O)C(=O)O)C(=O)O)Cc3cccc(Cl)c3)nn2)C(C)C)cc1)C(C)C` [13a], the “CC50, LNCaP” value in data set [1] was 0.1726 ± 0.0029 µM. The “CC50, 22Rv1” value in data set [2] turned out to be 0.1558 ± 0.0024 µM. The “CC50, PC-3” value in data set [3] is over 0.8 µM.
With `CC[C@H](C)[C@@H]([C@@H](CC(=O)N1CCC[C@H]1[C@H](OC)[C@@H](C)C(=O)N[C@H](C)[C@@H](O)c1ccccc1)OC)N(C)C(=O)[C@@H](NC(=O)[C@H](C(C)C)N(C)C(=O)OCc1ccc(NC(=O)[C@H](CCCNC(N)=O)NC(=O)[C@@H](NC(=O)CCCc2cn(CCCNC(=O)[C@H](CCCCNC(=O)CCC(=O)O[C@H]3CC[C@@]4(C)C(=CC[C@@H]5[C@@H]4CC[C@]4(C)C(c6cccnc6)=CC[C@@H]54)C3)NC(=O)[C@H](Cc3ccccc3)NC(=O)[C@H](Cc3ccccc3)NC(=O)CCC(=O)NCCCCCC(=O)N(CCCC[C@H](NC(=O)N[C@@H](CCC(=O)O)C(=O)O)C(=O)O)Cc3ccc(C(=O)O)cc3)nn2)C(C)C)cc1)C(C)C` [13d], the “CC50, LNCaP” value in data set [1] stood at 0.2126 ± 0.0038 µM. In data set [2], the “CC50, 22Rv1” value stood at 0.1918 ± 0.0024 µM. Moreover, the “CC50, PC-3” value in data set [3] is over 0.8 µM.
The matching figures for `CC[C@H](C)[C@@H]([C@@H](CC(=O)N1CCC[C@H]1[C@H](OC)[C@@H](C)C(=O)N[C@H](C)[C@@H](O)c1ccccc1)OC)N(C)C(=O)[C@@H](NC(=O)[C@H](C(C)C)N(C)C(=O)OCc1ccc(NC(=O)[C@H](CCCNC(N)=O)NC(=O)[C@@H](NC(=O)CCCc2cn(CCCNC(=O)[C@H](CCCCNC(=O)CCC(=O)O[C@H]3CC[C@@]4(C)C(=CC[C@@H]5[C@@H]4CC[C@]4(C)C(c6cccnc6)=CC[C@@H]54)C3)NC(=O)[C@H](Cc3ccc(O)cc3)NC(=O)[C@H](Cc3ccccc3)NC(=O)CCC(=O)NCCCCCC(=O)N(CCCC[C@H](NC(=O)N[C@@H](CCC(=O)O)C(=O)O)C(=O)O)Cc3ccc(C(=O)O)cc3)nn2)C(C)C)cc1)C(C)C` [13c]: 0.159 ± 0.0029 µM, 0.1922 ± 0.0027 µM and over 0.8 µM.
For `CC[C@H](C)[C@@H]([C@@H](CC(=O)N1CCC[C@H]1[C@H](OC)[C@@H](C)C(=O)N[C@H](C)[C@@H](O)c1ccccc1)OC)N(C)C(=O)[C@@H](NC(=O)[C@H](C(C)C)N(C)C(=O)OCc1ccc(NC(=O)[C@H](CCCNC(N)=O)NC(=O)[C@@H](NC(=O)CCCc2cn(CCCNC(=O)[C@H](CCCCNC(=O)CCC(=O)O[C@H]3CC[C@@]4(C)C(=CC[C@@H]5[C@@H]4CC[C@]4(C)C(c6cccnc6)=CC[C@@H]54)C3)NC(=O)[C@H](Cc3ccc(O)cc3)NC(=O)[C@H](Cc3ccccc3)NC(=O)CCC(=O)NCCCCCC(=O)N(CCCC[C@H](NC(=O)N[C@@H](CCC(=O)O)C(=O)O)C(=O)O)Cc3ccc(Br)cc3)nn2)C(C)C)cc1)C(C)C` [13b] the same measures were 0.1297 ± 0.0017 µM, 0.1285 ± 0.002 µM and over 0.8 µM.
For `CC[C@H](C)[C@@H]([C@@H](CC(=O)N1CCC[C@H]1[C@H](OC)[C@@H](C)C(=O)N[C@H](C)[C@@H](O)c1ccccc1)OC)N(C)C(=O)[C@@H](NC(=O)[C@H](C(C)C)N(C)C(=O)OCc1ccc(NC(=O)[C@H](CCCNC(N)=O)NC(=O)[C@@H](NC(=O)CCCc2cn(CCCNC(=O)[C@H](CCCCNC(=O)c3ccc(N4C(=S)N(c5ccc(C#N)c(C(F)(F)F)c5)C(=O)C4(C)C)cc3F)NC(=O)[C@H](Cc3ccc(O)cc3)NC(=O)[C@H](Cc3ccccc3)NC(=O)CCC(=O)NCCCCCC(=O)N(CCCC[C@H](NC(=O)N[C@@H](CCC(=O)O)C(=O)O)C(=O)O)Cc3cccc(Cl)c3)nn2)C(C)C)cc1)C(C)C` [compound 15], the “CC50, LNCaP” value in data set [1] was 0.1394 ± 0.0193 µM. The “CC50, 22Rv1” value in data set [2] was determined as 0.1702 ± 0.0153 µM. For the same compound, in data set [3], the “CC50, PC-3” value is over 0.8 µM.
